Earlier results, collected in US8361509B2, “Pharmaceutical dosage forms for the release of active compounds” (Laboratorios Farmacéticos Rovi, S.A., priority 2000, dated 2013).

Details: administered intestinally

Substance: insulin
- increase in bioavailability on reduction in particle size from 180-230 μm to <43 μm: 18 fold
